# According to ChEMBL document CHEMBL1129295, “Studies of cardiotonic agents. 8. Synthesis and biological activities of optically active 6-(4-(benzylamino)-7-quinazolinyl)-4,5-dihydro-5-methyl-3(2H)- pyridazinone (KF15232)” (J Med Chem, 1996):
# Amino acid sequences for entries named in this document (tags omitted).
# UniProt E1BN64, whole entry: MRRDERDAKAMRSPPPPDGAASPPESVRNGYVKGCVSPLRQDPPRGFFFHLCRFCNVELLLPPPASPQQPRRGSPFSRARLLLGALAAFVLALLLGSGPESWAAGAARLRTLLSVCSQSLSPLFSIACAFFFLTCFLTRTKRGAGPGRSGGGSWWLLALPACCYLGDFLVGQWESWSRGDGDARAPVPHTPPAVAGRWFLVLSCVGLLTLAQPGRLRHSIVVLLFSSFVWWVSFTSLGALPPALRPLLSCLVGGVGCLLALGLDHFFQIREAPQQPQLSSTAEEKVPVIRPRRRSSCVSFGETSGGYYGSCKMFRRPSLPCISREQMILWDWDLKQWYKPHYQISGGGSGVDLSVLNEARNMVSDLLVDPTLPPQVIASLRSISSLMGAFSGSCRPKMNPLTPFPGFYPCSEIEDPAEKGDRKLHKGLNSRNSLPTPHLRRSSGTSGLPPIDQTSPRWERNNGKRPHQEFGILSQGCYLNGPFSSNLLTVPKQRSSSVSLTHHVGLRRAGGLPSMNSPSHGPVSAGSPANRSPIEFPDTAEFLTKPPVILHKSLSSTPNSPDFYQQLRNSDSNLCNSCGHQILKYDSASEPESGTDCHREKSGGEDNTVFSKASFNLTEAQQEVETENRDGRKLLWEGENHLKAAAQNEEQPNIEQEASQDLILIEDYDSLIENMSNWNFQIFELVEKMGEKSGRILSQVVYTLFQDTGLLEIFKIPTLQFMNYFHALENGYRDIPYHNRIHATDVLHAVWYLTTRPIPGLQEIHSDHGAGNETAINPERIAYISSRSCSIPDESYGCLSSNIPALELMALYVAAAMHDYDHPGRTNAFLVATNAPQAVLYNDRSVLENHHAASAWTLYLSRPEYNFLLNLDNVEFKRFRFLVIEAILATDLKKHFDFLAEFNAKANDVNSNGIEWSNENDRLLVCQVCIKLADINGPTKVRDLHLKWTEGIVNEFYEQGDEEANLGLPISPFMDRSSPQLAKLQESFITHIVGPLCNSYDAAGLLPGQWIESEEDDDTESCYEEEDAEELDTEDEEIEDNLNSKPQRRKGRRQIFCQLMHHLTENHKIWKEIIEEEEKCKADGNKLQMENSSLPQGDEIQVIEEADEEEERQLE
# Tests used:
# [1] = target: cGMP-specific 3',5'-cyclic phosphodiesterase (Bos taurus, UniProt Q28156); test: Inhibition of bovine arterial Phosphodiesterase 5
# Phosphodiesterase 3B = Phosphodiesterase 3B (Bos taurus, UniProt E1BN64); test: Inhibition of bovine arterial Phosphodiesterase 3
IC50 [1] [nM],IC50 (Phosphodiesterase 3B) [nM],SMILES
46,50,CC1CC(=O)NN=C1c1ccc2c(NCc3ccccc3)ncnc2c1 (racemic)
1000,3000,C[C@H]1CC(=O)NN=C1c1ccc2c(NCc3ccccc3)ncnc2c1
10,5,C[C@@H]1CC(=O)NN=C1c1ccc2c(NCc3ccccc3)ncnc2c1
